Test results as given in publication PMC11672541, “Evaluation of Subetadex-α-methyl, a Polyanionic Cyclodextrin Scaffold, as a Medical Countermeasure against Fentanyl and Related Opioids” (2024).
Several values for one entry are separate records, joined by “and”; a condition that tells them apart may be missing. Equal values may be shown once.

How the values were obtained:
human erythrocytes = assay: Hemolytic activity; details: 10 mg/mL, 2 h, normalized to SGX, mean ± SEM
[1] = Binding of polyanionic cyclodextrins to fentanyl (binding constant, NMR); details: see SI
[2] = Tissue distribution of 14C-SBX-Me; details: at the Cmax, adjusted to total tissue weight
[3] = Pharmacokinetics of 14C-SBX-Me (IV or IM), plasma by AMS; details: for AUC0-t: t = 24 h
[4] = system: hemoglobin-free human erythrocyte ghosts; assay: Solubilization of phospholipids; details: CD 25 mg/mL, normalized to SGX, mean ± SEM
kidneys = details: rats, therapeutic dose levels; no deterioration in renal function; cited from earlier work

## CC(CSC[C@H]1O[C@@H]2O[C@H]3[C@H](O)[C@@H](O)[C@@H](O[C@H]4[C@H](O)[C@@H](O)[C@@H](O[C@H]5[C@H](O)[C@@H](O)[C@@H](O[C@H]6[C@H](O)[C@@H](O)[C@@H](O[C@H]7[C@H](O)[C@@H](O)[C@@H](O[C@H]8[C@H](O)[C@@H](O)[C@@H](O[C@H]1[C@H](O)[C@H]2O)O[C@@H]8CSCC(C)C(=O)O)O[C@@H]7CSCC(C)C(=O)O)O[C@@H]6CSCC(C)C(=O)O)O[C@@H]5CSCC(C)C(=O)O)O[C@@H]4CSCC(C)C(=O)O)O[C@@H]3CSCC(C)C(=O)O)C(=O)O (stereo partly drawn)
Human erythrocytes
  Hemolytic activity: 7.7% ± 13.8
[1]
  binding between SBX-Me and fentanyl (NMR results): strong binding
[2]
  proportion of the administered dose in all other tissues: less than 1%
  proportion of the administered dose in kidney: 2.5%
[2]; mean
  proportion of the administered dose in liver: 5.2%
[3]; 16 mg/kg IM, SBX-Me alone
  AUC0-inf: 56500 ± 20500 ng·h/mL
  CL: 5.107 ± 1.7 mL/min/kg
  Vd: 5.8963 ± 0.523 L/kg
  t1/2dist: 49.8 min and 49.8 ± 10.8 min
  t1/2elim: 882.6 ± 156 min
  tmax: 18 ± 0 min
  AUC0-t: 42000 ± 7710 ng·h/mL
[3]; 16 mg/kg IM, SBX-Me alone, plasma
  Cmax: 14700 ± 2600 ng/mL
[3]; 16 mg/kg IV
  CL: 3.675 ± 0.232 mL/min/kg
  Vd: 2.3492 ± 0.231 L/kg
[3]; 16 mg/kg IV, plasma
  AUC0-inf: 72700 ± 4540 ng·h/mL
  Cmax: 49800 ± 4400 ng/mL
  t1/2dist: 19.8 min and 19.8 ± 19.2 min
  t1/2elim: 444 min and 443 ± 27.6 min
  AUC0-t: 66900 ± 4760 ng·h/mL
[4]
  Phospholipid solubilization: no significant difference

## O=C(O)CCSC[C@H]1O[C@@H]2O[C@H]3[C@H](O)[C@@H](O)[C@@H](O[C@H]4[C@H](O)[C@@H](O)[C@@H](O[C@H]5[C@H](O)[C@@H](O)[C@@H](O[C@H]6[C@H](O)[C@@H](O)[C@@H](O[C@H]7[C@H](O)[C@@H](O)[C@@H](O[C@H]8[C@H](O)[C@@H](O)[C@@H](O[C@H]1[C@H](O)[C@H]2O)O[C@@H]8CSCCC(=O)O)O[C@@H]7CSCCC(=O)O)O[C@@H]6CSCCC(=O)O)O[C@@H]5CSCCC(=O)O)O[C@@H]4CSCCC(=O)O)O[C@@H]3CSCCC(=O)O
Human erythrocytes
  Hemolytic activity: 534.2% ± 110.1

## O=C(O)CCCSC[C@H]1O[C@@H]2O[C@H]3[C@H](O)[C@@H](O)[C@@H](O[C@H]4[C@H](O)[C@@H](O)[C@@H](O[C@H]5[C@H](O)[C@@H](O)[C@@H](O[C@H]6[C@H](O)[C@@H](O)[C@@H](O[C@H]7[C@H](O)[C@@H](O)[C@@H](O[C@H]8[C@H](O)[C@@H](O)[C@@H](O[C@H]1[C@H](O)[C@H]2O)O[C@@H]8CSCCCC(=O)O)O[C@@H]7CSCCCC(=O)O)O[C@@H]6CSCCCC(=O)O)O[C@@H]5CSCCCC(=O)O)O[C@@H]4CSCCCC(=O)O)O[C@@H]3CSCCCC(=O)O
Human erythrocytes
  Hemolytic activity: 338.1% ± 68.9

## Sugammadex
kidneys
  histopathological effect in the kidneys: histopathological degeneration in the kidneys
